One molecule from ChEMBL document CHEMBL1139680, “2,4-Disubstituted piperidines as selective CC chemokine receptor 3 (CCR3) antagonists: synthesis and selectivity” (Bioorg Med Chem Lett, 2006) can be followed below.

The structures appear in SMILES notation.

This assay is filed under the species Homo sapiens. The experiment in a line: Selectivity for CCR3 over 5HT2A.

Turning to `CCCN1CC[C@@H](Cc2ccc(F)cc2)C[C@@H]1CCCNC(=O)Nc1cccc(C(C)=O)c1`, the Selectivity ratio stood at 170.
